# Experimental data taken from EP4847489A1, “IMIDAZOLIDINEDIONE HDAC INHIBITOR, AND PREPARATION METHOD THEREFOR AND USE THEREOF” (dated 2026).
# The chains behind the UniProt entries cited, without tags or fusion partners.
# UniProt Q13547, whole entry: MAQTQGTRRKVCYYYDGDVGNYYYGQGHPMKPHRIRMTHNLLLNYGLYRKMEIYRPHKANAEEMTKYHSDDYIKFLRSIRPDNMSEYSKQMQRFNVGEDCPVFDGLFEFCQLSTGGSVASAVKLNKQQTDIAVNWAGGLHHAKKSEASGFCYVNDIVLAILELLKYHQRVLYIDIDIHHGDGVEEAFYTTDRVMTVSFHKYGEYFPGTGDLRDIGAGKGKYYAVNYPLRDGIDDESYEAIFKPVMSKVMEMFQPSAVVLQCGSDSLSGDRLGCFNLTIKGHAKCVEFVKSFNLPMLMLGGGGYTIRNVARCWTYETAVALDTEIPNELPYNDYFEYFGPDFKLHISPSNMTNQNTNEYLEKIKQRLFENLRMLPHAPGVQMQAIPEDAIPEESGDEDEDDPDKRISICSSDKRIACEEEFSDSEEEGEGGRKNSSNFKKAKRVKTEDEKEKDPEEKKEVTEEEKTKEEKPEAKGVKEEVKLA
# “And” between values parts separate entries of the source, which are not always exact repeats. Equal entries are not always repeated.
# Experiments:
# A549 = assay: Anti-proliferative activity in tumor cell lines, CCK 8 assay (A549); conditions: read-out: Anti-proliferative activity (IC50, µM) A549, A549 cells, 48 h incubation
# DU145 = assay: Anti-proliferative activity in tumor cell lines, CCK 8 assay (DU145); conditions: read-out: Anti-proliferative activity (IC50, µM) DU145, DU145 cells, 48 h incubation
# HDAC1 = HDAC1 (Homo sapiens, UniProt Q13547); assay: HDAC inhibition assay (HDAC1 inhibitory activity); conditions: for IC50: read-out: HDAC1 inhibitory activity (IC50)
SMILES,IC50 (A549) [µM],IC50 (DU145) [µM],IC50 (HDAC1),inhibitory activity against HDAC1 relative to the positive control Vorinostat (HDAC1; fold versus Vorinostat) [times]
COc1ccccc1/C=C1/C(=O)N(CCCCCCC(=O)NO)C(=O)N1C,4.43,2.26,16 nM,
Nc1cc(F)ccc1NC(=O)c1ccc(CN2C(=O)N/C(=C\c3cccnc3)C2=O)cc1,,,180 nM,
COc1cc(Br)ccc1/C=C1\NC(=O)N(CCCCCC(=O)NO)C1=O,2.36,< 0.1,0.57 nM,30
COc1cc(Br)ccc1/C=C1/C(=O)N(CCCCCCC(=O)NO)C(=O)N1C,5.13,3.53,,
COc1cc(F)ccc1/C=C1\NC(=O)N(CCCCCC(=O)NO)C1=O,4.86,< 0.1,,
COc1cc(Cl)ccc1/C=C1\NC(=O)N(CCCCCC(=O)NO)C1=O,2.42,< 0.1,,
COc1ccccc1/C=C1\NC(=O)N(CCCCCCCCCC(=O)NO)C1=O,,> 4,68 nM,
CN1C(=O)N(Cc2ccc(C(=O)Nc3ccc(F)cc3N)cc2)C(=O)/C1=C/c1cccnc1,,,175 nM,
COc1ccccc1/C=C1\NC(=O)N(CCCCC(=O)NO)C1=O,6.82,> 4,76 nM,
COc1cccc(/C=C2\NC(=O)N(CCCCCC(=O)NO)C2=O)c1,9.74,< 0.1,1.7 nM,
O=C(CCCCCN1C(=O)N/C(=C\c2ccc3ccccc3c2)C1=O)NO,3.68,0.77,2.4 nM,
COc1ccc(/C=C2\NC(=O)N(CCCCCC(=O)NO)C2=O)c(OC)c1,,,1.2 nM,
O=C(CCCCCN1C(=O)N/C(=C\c2ccc3c(c2)CCO3)C1=O)NO,3.68,< 0.1,,
O=C(CCCCCN1C(=O)N/C(=C\c2ccc3occc3c2)C1=O)NO,4.43,0.34,,
COc1ccccc1/C=C1\NC(=O)N(CCCCCCC(=O)NO)C1=O,,,8.6 nM and 6 nM,
COc1ccccc1/C=C1\NC(=O)N(CCCCCCCCC(=O)NO)C1=O,,> 4,25 nM,
O=C(CCCCCN1C(=O)N/C(=C\c2cccc3ccccc23)C1=O)NO,4.3,1.28,,
COc1ccc(/C=C2\NC(=O)N(CCCCCC(=O)NO)C2=O)cc1,1.49,< 0.1,1 nM,
O=C(CCCCCN1C(=O)N/C(=C\c2cnc3ccccc3c2)C1=O)NO,,3.43,2 nM,
COc1cc(Br)ccc1/C=C1\NC(=O)N(CCCCCCC(=O)NO)C1=O,5.03,> 4,,
COc1ccccc1/C=C1\NC(=O)N(CCCCCC(=O)NO)C1=O,7.94,0.26,2.8 nM,
COc1cc(Br)ccc1/C=C1\NC(=O)N(CCCCCCCC(=O)NO)C1=O,7.6,1.65,7.8 nM,
COc1cc(C(F)(F)F)ccc1/C=C1\NC(=O)N(CCCCCC(=O)NO)C1=O,2.12,< 0.1,,
COc1cc(/C=C2\NC(=O)N(CCCCCC(=O)NO)C2=O)cc(OC)c1OC,,,1.2 nM,
COc1ccccc1/C=C1\NC(=O)N(CCCCCCCC(=O)NO)C1=O,9.7,1.45,,
O=C(CCCCCN1C(=O)N/C(=C\c2ccc3c(c2)OCO3)C1=O)NO,,,5.9 nM,
O=C(CCCCCN1C(=O)N/C(=C\c2cccs2)C1=O)NO,4.86,1.04,,
COc1cc(C)ccc1/C=C1\NC(=O)N(CCCCCC(=O)NO)C1=O,2.04,< 0.1,,
